System: ESKAPE pathogens
Assay: Antimicrobial efficacy against ESKAPE pathogens (all other than P. aeruginosa)
Type: cell-based
Details: mammalian serum; susceptible and drug-resistant strains
Procedure: FIG. 8 is a graph showing antimicrobial efficacies of ATRA1-R3W2-HYD (blue), NA-CATH (dark orange) and PMB (green) against selected members of ESKAPE (Enterococcus faecium, Staphylococcus aureus, Klebsiella pneumoniae, Acinetobacter baumannii, Pseudomonas aeruginosa, and Enterobacter) pathogens. Both susceptible and drug-resistant strains were used. All the bacteria, except Pseudomonas aeruginosa, were tested under mammalian serum. P. aeruginosa results were obtained from testing in DPBS. The results are presented as mean of tests in triplicate with error-bars depicting the 95% confidence interval of the mean.
Antimicrobial Studies. The phosphate buffers used for antimicrobial assays were supplemented with non-nitrogenous energy source, 0.1% (w/v) glucose. […]
Antimicrobial assays in different phosphate buffers and serum were conducted by adapting, with necessary modifications a fast high-throughput method based on Virtual Colony Count technique and later modified by incorporating the use of resazurin. At first serial dilution of a microbial strain in respective buffer was poured in the wells of 96 well polypropylene microplate and was then added with same volume of 2× MHB II supplemented with 80 μg/mL resazurin and incubated at 35° C. in a Gemini EM Microplate Reader (Molecular Devices) overnight with intermittent shaking. […]

CC[C@H](C)[C@H](NC(=O)[C@@H](NC(=O)[C@H](CCCCN)NC(=O)[C@@H]1CCCN1C(=O)[C@H](CCCCN)NC(=O)[C@H](CCCCN)NC(=O)[C@H](Cc1ccccc1)NC(=O)[C@H](Cc1ccccc1)NC(=O)[C@H](CCCCN)NC(=O)[C@H](CCCCN)NC(=O)[C@H](C)NC(=O)[C@H](CCCNC(=N)N)NC(=O)[C@H](CCCCN)NC(=O)[C@H](CCCCN)NC(=O)[C@@H](NC(=O)[C@H](CO)NC(=O)[C@H](CC(N)=O)NC(=O)[C@H](CCCCN)NC(=O)[C@H](CC(C)C)NC(=O)[C@H](CCCCN)NC(=O)[C@H](CCCCN)NC(=O)[C@H](Cc1ccccc1)NC(=O)[C@H](Cc1ccccc1)NC(=O)[C@H](CCCCN)NC(=O)[C@H](CCCCN)NC(=O)[C@H](Cc1ccccc1)NC(=O)[C@H](CCCNC(=N)N)NC(=O)[C@@H](N)CCCCN)C(C)C)C(C)C)C(=O)NCC(=O)N[C@H](C(=O)N[C@H](C(=O)N[C@@H](Cc1ccccc1)C(=O)N1CCC[C@H]1C(=O)N[C@@H](Cc1ccccc1)C(=O)O)[C@@H](C)O)C(C)C [NA-CATH, reference compound]
antimicrobial effectiveness, in words: highly effective, though in lower degree than PMB
